Measurements published in patent US20160108115 (published 2016).

B1: BNJ441 (antibody, V domains shown)
VH: QVQLVQSGAEVKKPGASVKVSCKASGHIFSNYWIQWVRQAPGQGLEWMGEILPGSGHTEYTENFKDRVTMTRDTSTSTVYMELSSLRSEDTAVYYCARYFFGSSPNWYFDVWGQGTLVTVSS
VL: DIQMTQSPSSLSASVGDRVTITCGASENIYGALNWYQQKPGKAPKLLIYGATNLADGVPSRFSGSGSGTDFTLTISSLQPEDFATYYCQNVLNTPLTFGQGTKVEIK
B2: EHG303 (antibody, V domains shown)
VH: B1 VH
VL: B1 VL

Key:
Assay in all cases: SPR
human C5 [1] = molecular target: T1, human C5 (human, UniProt P01031)
human C5 [2] = molecular target: T1, human C5; remark: listed apart in the source
human C5 [3] = molecular target: T1, human C5; remark: listed apart in the source
human C5 [4] = molecular target: T1, human C5; remark: listed apart in the source
human C5 [5] = molecular target: T1, human C5; remark: listed apart in the source
human C5 [6] = molecular target: T1, human C5; remark: listed apart in the source
human C5 [7] = molecular target: T1, human C5; remark: listed apart in the source
human C5 [8] = molecular target: T1, human C5; remark: listed apart in the source
human C5 [9] = molecular target: T1, human C5; remark: listed apart in the source

Kd (human C5 [1])	Kd (human C5 [2])	Kd (human C5 [3])	Kd (human C5 [4])	Kd (human C5 [5])	Kd (human C5 [6])	Kd (human C5 [7])	Kd (human C5 [8])	Kd (human C5 [9])	Binder
2.19 nM	0.911 nM	0.491 nM	0.421 nM	0.461 nM	0.213 nM	21.8 nM			B1
							0.146 nM	1190 nM	B2

Where two headings read alike, the source gives them in different places.
